# Test: Single ascending dose (SAD) study in healthy volunteers: pharmacokinetics of d-methadone
# Details: both, human, in vivo, 5 mg, SAD 5 mg, mean
smiles,measurement,value
CCC(=O)C(C[C@H](C)N(C)C)(c1ccccc1)c1ccccc1 [d-methadone],Cmax,53.3 ng/mL

# — patent US20180214395A1 (priority 2017, published 2018)
